This is a selection; strong and weak results do not stand in their true shares. Active and inactive are the calls of the source.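 Rule for the calls: active = mean replicate percent of control at or below 100 minus about 85%, very high polarization wells dropped (limit read from the data); inactive = the rest.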

Protein sequences, listed by entry. Tags and fused reporters are not part of them.
UniProt P08753, whole entry: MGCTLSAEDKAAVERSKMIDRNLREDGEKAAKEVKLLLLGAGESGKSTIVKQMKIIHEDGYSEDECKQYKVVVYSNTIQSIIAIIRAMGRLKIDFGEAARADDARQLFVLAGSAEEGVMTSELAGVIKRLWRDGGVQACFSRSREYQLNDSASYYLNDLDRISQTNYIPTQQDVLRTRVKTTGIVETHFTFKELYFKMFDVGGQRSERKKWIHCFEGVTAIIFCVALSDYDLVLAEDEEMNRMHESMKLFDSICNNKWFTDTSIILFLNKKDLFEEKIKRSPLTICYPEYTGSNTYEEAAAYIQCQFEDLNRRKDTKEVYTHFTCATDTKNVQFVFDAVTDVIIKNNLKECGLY
UniProt Q3V6T2, whole entry partner: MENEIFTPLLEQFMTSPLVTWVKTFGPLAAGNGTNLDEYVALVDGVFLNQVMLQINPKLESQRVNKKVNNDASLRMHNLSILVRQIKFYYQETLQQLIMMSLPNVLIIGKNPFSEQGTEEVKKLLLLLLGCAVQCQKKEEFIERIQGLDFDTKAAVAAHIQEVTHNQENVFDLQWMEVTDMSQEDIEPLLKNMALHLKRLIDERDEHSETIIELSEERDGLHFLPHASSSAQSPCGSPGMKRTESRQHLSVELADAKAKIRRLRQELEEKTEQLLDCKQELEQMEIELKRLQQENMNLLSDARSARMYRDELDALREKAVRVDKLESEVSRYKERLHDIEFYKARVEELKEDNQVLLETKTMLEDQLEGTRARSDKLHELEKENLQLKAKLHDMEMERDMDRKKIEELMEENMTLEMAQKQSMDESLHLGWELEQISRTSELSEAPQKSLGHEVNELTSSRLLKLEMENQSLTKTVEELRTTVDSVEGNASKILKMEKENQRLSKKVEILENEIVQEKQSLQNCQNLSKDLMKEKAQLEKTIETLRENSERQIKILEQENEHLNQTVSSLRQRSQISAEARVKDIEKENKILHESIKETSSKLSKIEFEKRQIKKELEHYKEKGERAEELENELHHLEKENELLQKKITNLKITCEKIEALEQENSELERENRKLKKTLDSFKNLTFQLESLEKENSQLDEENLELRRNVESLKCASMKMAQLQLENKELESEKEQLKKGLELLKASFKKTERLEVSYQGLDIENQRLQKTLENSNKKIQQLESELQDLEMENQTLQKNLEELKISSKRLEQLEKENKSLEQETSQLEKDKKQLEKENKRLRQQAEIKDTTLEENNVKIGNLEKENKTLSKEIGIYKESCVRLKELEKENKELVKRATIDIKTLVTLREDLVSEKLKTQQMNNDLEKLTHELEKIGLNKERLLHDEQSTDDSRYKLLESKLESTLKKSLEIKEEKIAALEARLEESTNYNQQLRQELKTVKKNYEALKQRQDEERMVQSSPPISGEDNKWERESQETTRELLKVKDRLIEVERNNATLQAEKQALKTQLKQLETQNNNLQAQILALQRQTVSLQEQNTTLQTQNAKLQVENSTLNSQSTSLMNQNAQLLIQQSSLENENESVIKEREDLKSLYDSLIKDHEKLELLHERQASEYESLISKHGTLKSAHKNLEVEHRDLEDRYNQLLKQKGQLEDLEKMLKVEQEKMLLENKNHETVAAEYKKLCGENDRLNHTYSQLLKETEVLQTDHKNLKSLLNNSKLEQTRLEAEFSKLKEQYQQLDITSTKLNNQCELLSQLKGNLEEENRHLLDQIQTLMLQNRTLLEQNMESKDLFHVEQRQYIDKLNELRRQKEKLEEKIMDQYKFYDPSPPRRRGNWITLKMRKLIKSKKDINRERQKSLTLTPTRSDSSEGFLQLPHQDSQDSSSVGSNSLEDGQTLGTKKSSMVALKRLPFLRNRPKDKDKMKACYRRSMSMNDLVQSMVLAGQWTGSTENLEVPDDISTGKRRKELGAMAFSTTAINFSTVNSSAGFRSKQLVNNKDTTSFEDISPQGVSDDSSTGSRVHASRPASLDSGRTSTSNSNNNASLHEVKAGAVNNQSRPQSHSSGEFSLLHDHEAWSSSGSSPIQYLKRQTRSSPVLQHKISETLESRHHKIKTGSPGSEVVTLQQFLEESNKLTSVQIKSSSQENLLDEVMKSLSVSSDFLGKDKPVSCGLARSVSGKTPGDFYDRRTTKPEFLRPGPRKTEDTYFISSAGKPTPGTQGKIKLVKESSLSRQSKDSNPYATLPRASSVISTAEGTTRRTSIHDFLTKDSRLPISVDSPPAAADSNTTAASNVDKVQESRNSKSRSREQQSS

This assay concerns the target Guanine nucleotide-binding protein G(i) subunit alpha-3 (Rattus norvegicus) (UniProt P08753). Description: disruptors of GIV-Galphai3 protein-protein interaction – biochemical, fluorescence polarization, FITC-GIV GBA peptide, rat Galphai3, primary screen (AID 1224905). The conditions noted are these: Galpha-i3/FITC-GIV peptide fluorescence polarization, 90 min; stronger effect = lower value; scaled: aluminum fluoride 0%, vehicle 100%.
Consider `CP(=O)(Nc1ccc(Cl)cc1)Oc1ccc(F)cc1` (stereo not drawn), for which the percent of control (FP) was inactive: 105%.

For `CCOP(OCC)N1CCOCC1`, the percent of control (FP) is inactive: 110%.

Take `Nc1cc(N)c2nonc2c1[N+](=O)[O-]`: the percent of control (FP) is inactive: 97.4%.

As to `CP(=O)(Nc1ccccn1)Oc1ccccc1` (stereo not drawn), the percent of control (FP) was inactive: 99.8%.

Consider `CC(=O)OC=C1c2cc([N+](=O)[O-])cc([N+](=O)[O-])c2-c2c1cc([N+](=O)[O-])cc2[N+](=O)[O-]`, for which the percent of control (FP) is inactive: 104%.

Consider `O=CC1c2cc([N+](=O)[O-])cc([N+](=O)[O-])c2-c2c1cc([N+](=O)[O-])cc2[N+](=O)[O-]`, for which the percent of control (FP) was inactive: 110%.

Consider `N#Cc1cc([N+](=O)[O-])cc2c1-c1c(cc([N+](=O)[O-])cc1[N+](=O)[O-])C2=O`, for which the percent of control (FP) was inactive: 110%.

As for `CCOP(=Nc1nc2ccccc2n2nnnc12)(OCC)OCC`, the percent of control (FP) was inactive: 104%.

Turning to `CN(C(=O)Cc1ccc(Cl)c(Cl)c1)[C@H]1CCCC[C@@H]1N1CCCC1`, the percent of control (FP) was inactive: 106%.

Regarding `COC(=O)N(c1ccccc1)P1(=S)OCC(C)O1` (stereo not drawn), the percent of control (FP) was inactive: 103%.

Take `CN(C)c1cc2c(c([N+](=O)[O-])c1)-c1c(cc([N+](=O)[O-])cc1[N+](=O)[O-])C2=O`: the percent of control (FP) was inactive: 105%.

Take `CN(C(=O)Cc1ccc(Cl)c(Cl)c1)[C@@H]1CCCC[C@@H]1N1CCCC1`: the percent of control (FP) is inactive: 103%.

`O=C(OC1CN2CCC1CC2)c1ccccc1` (stereo not drawn): the percent of control (FP) is inactive: 102%.

Take `COc1cc2c(cc1NP(C)(=O)Oc1ccccc1)oc1ccccc12` (stereo not drawn): the percent of control (FP) is inactive: 102%.

Take `O=C(OC1/C(=C/c2ccccc2F)N2CCC1CC2)c1ccccc1` (stereo not drawn): the percent of control (FP) was inactive: 105%.

`O=[N+]([O-])c1cc([N+](=O)[O-])c(Sc2nc3ccccc3s2)c([N+](=O)[O-])c1`: the percent of control (FP) is inactive: 110%.

For `O=C(OCCN1CCN(CCOCc2ccccc2)CC1)C(O)(c1ccccc1)c1ccccc1`, the percent of control (FP) was inactive: 99.7%.

For the compound `O=[N+]([O-])c1cc2c(c([N+](=O)[O-])c1)-c1c(cc([N+](=O)[O-])cc1[N+](=O)[O-])C2=NO`, the percent of control (FP) was inactive: 105%.

In the case of `Cc1ccc(NP(=O)(/N=c2\nc(-c3ccccc3)n(-c3ccccc3)s2)Nc2ccc(C)cc2)cc1`, the percent of control (FP) was inactive: 118%.

Regarding `Cc1ccccc1NP(C)(=O)Nc1ccccc1C`, the percent of control (FP) is inactive: 97.5%.

Take `C=CCN1CCN(CCOC(=O)C(O)(c2ccccc2)c2ccccc2)CC1`: the percent of control (FP) was inactive: 110%.

Take `Nc1nonc1OCc1nonc1COc1nonc1N`: the percent of control (FP) was inactive: 102%.

In the case of `Cc1ccc(C(=O)OC2CN3CCC2CC3)cc1` (stereo not drawn), the percent of control (FP) was inactive: 102%.

Consider `Cc1cc(C)cc(OP(C)(=O)Nc2ccc(OC(C)C)cc2)c1` (stereo not drawn), for which the percent of control (FP) was inactive: 106%.

In the case of `O=P1(Nc2ccccn2)COc2ccccc2OC1`, the percent of control (FP) was inactive: 98.7%.

`Nc1nonc1-c1no[n+]([O-])c1-c1nonc1N`: the percent of control (FP) is inactive: 105%.

With `O=C(OC1CN2CCC1CC2)c1ccc(Cl)cc1` (stereo not drawn), the percent of control (FP) was inactive: 105%.

Turning to `CN(C(=O)Cc1ccc(Cl)c(Cl)c1)[C@@H]1CC[C@]2(CCCO2)C[C@H]1N1CCCC1`, the percent of control (FP) is inactive: 106%.

Consider `Cc1cccc(OCC(=O)OC2CN3CCC2CC3)c1` (stereo not drawn), for which the percent of control (FP) is inactive: 102%.

For the compound `NC(=O)COC(=O)C1(O)c2ccccc2-c2ccccc21`, the percent of control (FP) is inactive: 98.8%.

In the case of `O=P1(Nc2nc3ccc(Cl)cc3s2)COc2ccccc2OC1`, the percent of control (FP) is inactive: 99.1%.

On to `CN(C(=O)Cc1ccccc1)[C@@H]1CC[C@]2(CCCO2)C[C@H]1N1CCCC1`, for which the percent of control (FP) was inactive: 101%.

On to `O=C(O)C1(O)c2ccccc2-c2ccccc21`, for which the percent of control (FP) was inactive: 99.4%.

Consider `CC1=Nc2ccc(C(F)(F)F)cc2C1(C)C`, for which the percent of control (FP) was inactive: 109%.

Consider `O=[N+]([O-])c1ccc(NN=C2c3cc([N+](=O)[O-])cc([N+](=O)[O-])c3-c3c2cc([N+](=O)[O-])cc3[N+](=O)[O-])cc1`, for which the percent of control (FP) was inactive: 101%.

As to `Nc1nonc1OCCOc1nonc1N`, the percent of control (FP) was inactive: 93.2%.

As for `Cc1cc(C)cc(OP(C)(=O)NCc2ccccc2)c1` (stereo not drawn), the percent of control (FP) is inactive: 107%.

With `O=C(OC1CN2CCC1CC2)C12CC3CC(CC(C3)C1)C2` (stereo not drawn), the percent of control (FP) was inactive: 105%.

Take `COP(=O)(OC)C(NC(=O)c1ccc(C)cc1)=C(Cl)Cl`: the percent of control (FP) is inactive: 104%.

Regarding `CCCOC=C1c2cc([N+](=O)[O-])cc([N+](=O)[O-])c2-c2c1cc([N+](=O)[O-])cc2[N+](=O)[O-]`, the percent of control (FP) is inactive: 113%.

For `CP(=O)(Nc1ccc(Cl)cc1)Oc1ccccc1` (stereo not drawn), the percent of control (FP) is inactive: 98.8%.

As for `Cc1nn2c(c1[N+](=O)[O-])n1nc(C)c([N+](=O)[O-])c1n1nc(C)c([N+](=O)[O-])c21`, the percent of control (FP) was inactive: 110%.

For `COc1ccccc1OP(C)(=O)Nc1ccccc1` (stereo not drawn), the percent of control (FP) is inactive: 101%.

Source of the values: PubChem BioAssay AID1224905 (ICCB-Longwood Screening Facility, Harvard Medical School, 2016).
